Consider 1 compound from patent US20250282785A1, “PYRROLIDINONE DERIVATIVES AS INHIBITORS OF NF KAPPA B INDUCING KINASE” (priority 2022, published 2025).

Chains of the proteins cited; added tags and fusions are not shown.
UniProt Q99558, whole entry: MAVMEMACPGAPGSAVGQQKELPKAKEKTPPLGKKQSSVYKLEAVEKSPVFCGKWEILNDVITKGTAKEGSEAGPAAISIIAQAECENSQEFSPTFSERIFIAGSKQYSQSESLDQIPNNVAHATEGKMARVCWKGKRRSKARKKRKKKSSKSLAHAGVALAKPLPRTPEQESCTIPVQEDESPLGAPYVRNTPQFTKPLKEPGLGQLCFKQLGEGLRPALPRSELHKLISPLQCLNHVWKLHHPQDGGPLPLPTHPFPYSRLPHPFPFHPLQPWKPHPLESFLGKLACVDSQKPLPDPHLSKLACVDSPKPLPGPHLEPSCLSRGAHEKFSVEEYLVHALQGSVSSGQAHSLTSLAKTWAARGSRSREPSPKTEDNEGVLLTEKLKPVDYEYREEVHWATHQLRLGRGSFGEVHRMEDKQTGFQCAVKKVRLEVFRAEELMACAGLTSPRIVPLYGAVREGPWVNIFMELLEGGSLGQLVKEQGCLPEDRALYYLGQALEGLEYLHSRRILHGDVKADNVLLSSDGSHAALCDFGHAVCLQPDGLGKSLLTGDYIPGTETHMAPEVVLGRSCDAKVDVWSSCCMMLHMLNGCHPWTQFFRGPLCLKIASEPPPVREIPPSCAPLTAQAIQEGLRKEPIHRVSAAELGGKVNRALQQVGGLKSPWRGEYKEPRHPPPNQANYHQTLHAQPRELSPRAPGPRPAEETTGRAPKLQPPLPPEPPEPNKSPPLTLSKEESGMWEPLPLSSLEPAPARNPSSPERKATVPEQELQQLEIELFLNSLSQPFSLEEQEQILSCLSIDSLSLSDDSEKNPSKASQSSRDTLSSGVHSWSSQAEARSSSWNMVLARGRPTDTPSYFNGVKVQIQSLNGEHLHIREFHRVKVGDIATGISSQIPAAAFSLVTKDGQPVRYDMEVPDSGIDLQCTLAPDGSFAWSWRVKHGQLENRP

The subject of experiment [1] is p-IKKα levels in L363 (NIK translocated multiple myeloma) cells. The experiment can be described thus: Effect of compounds on p-IKKα levels in L363 cells (AlphaLISA SureFire Ultra). The note with it: read-out: Assay 2 IC50, BAFF stimulated, MG132, 6 h, average of values. It is filed as cell-based, human. The procedure: Biological Assay 2: Effect of Compounds on p-IKKα Levels in L363 (NIK Translocated Multiple Myeloma) Cells
All compounds tested were dissolved and serially diluted in DMSO, 1:3 dilution for 11 points in an Echo compatible plate. 100% DMSO is added to columns 12 and 24 of the plate to serve as high and low signal controls. This compound plate was used to spot 20 nl of compound or DMSO into a Greiner 384 well TC plate (781080). Final DMSO concentration was […] (v/v) in cell assays. Human L363 cells (ATCC) were cultured in RPMI 1640 medium supplemented with GlutaMax, non-essential amino acids, sodium pyruvate and 10% fetal bovine serum. Cells were routinely maintained at densities of 0.2×10^6 cells per ml −2×10^6 cells per ml at 37° C. in a humidified 5% CO2 atmosphere incubator. […] At the end of this incubation, lysed cells were sequentially treated and incubated with acceptor and donor bead mixes according to the manufacturer's protocol for a 1 plate/2-incubation suspension cell assay (AlphaLISA SureFire Ultra p-IKKα (Ser 176/180) Assay Kit (Perkin ElmeR). Plates were read using an EnVision® Multilabel Plate Reader (Perkin ElmeR). Within an experiment, a concentration response curve for each compound was run in duplicate. Signal obtained in the test wells was normalized using high signal (BAFF stimulated cells, DMSO, MG132) and low signal (unstimulated cells, DMSO) controls. […]
For orientation: Alpha assays give light when donor and acceptor beads are brought close together.

Experiment [2] addresses Recombinant Human NF-Kappab-Inducing Kinase (NIK/MAP3K14) (Homo sapiens, UniProt Q99558). The experiment in a line: Inhibition of auto-phosphorylation of recombinant human NIK/MAP3K14 (AlphaScreen). It is filed as biochemical. Particulars: read-out: Assay 1 IC50, 5 microM ATP, 1 nM enzyme, 2 h at 25° C., average of values. The procedure: Biological Assay 1: Inhibition of Auto-Phosphorylation of Recombinant Human NF-Kappab-Inducing Kinase (NIK/MAP3K14) Activity (AlphaScreen®)
NIK/MAP3K14 auto-phosphorylation activity was measured using the AlphaScreen® ((αscreen) format (Perkin ElmeR). All compounds tested were dissolved in dimethyl sulfoxide (DMSO) and further dilutions were made in assay buffer. Final DMSO concentration was 0.7% (v/v) in assays. Assay buffer was 50 mM Tris pH 7.5 containing 1 mM EGTA (ethylene glycol tetraacetic acid), 1 mM DTT (dithiothreitol), 0.1 mM Na3VO4, 5 mM MgCl2, 0.01% Tween® 20. Assays were carried out in 384 well Proxiplates (Perkin ElmeR). Incubations consisted of compound, 5 microM Adenosine-5′-triphosphate (ATP), and 1 nM NIK/MAP3K14. Incubations were initiated by addition of GST-tagged NIK/MAP3K14 enzyme, carried out for 2 h at 25° C. and terminated by addition of stop buffer containing anti-phospho-IKK Ser176/180 antibody. Protein A Acceptor and Glutathione-donor beads were added before reading using an EnVision® Multilabel Plate Reader (Perkin ElmeR). Signal obtained in the wells was normalized using high (full enzyme activity, 0.7% DMSO) and low controls (no enzyme activity, 0.7% DMSO, no ATP). IC50's were determined by fitting a sigmoidal curve to % inhibition of control versus Log10 compound concentration.

Regarding `CN1CC[C@@](O)(c2cc(-c3cccc(-c4ccc5c(n4)c(N)nn5C)c3)on2)C1=O`, the IC50 – broadly, the point on the concentration scale where inhibition reaches its midpoint – in experiment [1] is > 501 nM; in experiment [2], 100 to 500 nM.
